Experimental data taken from patent US20060251751A1, “Sophoridine and its use as an analgesic” (SHANGHAI FANGDA PHARMACEUTICALS, LTD., priority 2001, published 2006).

Test system: mice
Test: Effect of the opioid receptor antagonist naloxone on morphine- and sophoridine-induced analgesia
[1] = morphine hydrochloride alone 10 mg/kg i.v.

CN1CC[C@]23c4c5ccc(O)c4O[C@H]2[C@@H](O)C=C[C@H]3[C@H]1C5.Cl [Morphine, morphine hydrochloride] was tested, and the “Pain thresholds after admin. (seconds) 30 min.” value (morphine hydrochloride alone 10 mg/kg i.v., 30 min.) was 43.5 ± 12.5 s, the “Pain thresholds after admin. (seconds) 60 min.” value [1] was 31.6 ± 15.8 s and the “Pain thresholds after admin. (seconds) 90 min.” value [1] was 26.3 ± 15.5 s. The “Pain thresholds before admin.” value (morphine hydrochloride alone 10 mg/kg i.v., before admin. (baseline)) was 19.8 ± 4.0 s and the “naloxone counteracting the analgesic effect (in words)” value (naloxone 2.0 mg/kg, morphine 10 mg/kg or sophoridine 20 mg/kg) was “effective in counteracting the analgesic effect”.
For C=CCN1CC[C@]23c4c5ccc(O)c4O[C@H]2C(=O)CC[C@@]3(O)[C@H]1C5 [Naloxone, naloxone], the “Pain thresholds after admin. (seconds) 15 min.” value (naloxone alone 2 mg/kg i.v., 15 min.) was 17.4 ± 7.7 s, the “Pain thresholds after admin. (seconds) 60 min.” value (naloxone alone 2 mg/kg i.v.) was 19.0 ± 8.7 s and the “Pain thresholds after admin. (seconds) 90 min.” value (naloxone alone 2 mg/kg i.v.) was 18.1 ± 4.0 s.
